Earlier results, collected in US20230091671A1 (priority 2020, published 2023).
Structures can show the parent of a compound that is named as a salt.

Details: in vivo; cited from earlier work

SMILES: CCN1CC(CCN2CCOCC2)C(c2ccccc2)(c2ccccc2)C1=O (stereo not shown) [Doxapram hydrochloride, 1-ethyl-4-[2-(4-morpholinyl)ethyl]-3,3-diphenyl-2-pyrrolidinone monohydrochloride, monohydrate]
- metabolism (enzymes / pathway): ring hydroxylation to ketodoxapram
